High-throughput results (PubChem BioAssay)
TDP1 cell noCPT = qHTS for Inhibitors of human tyrosyl-DNA phosphodiesterase 1 (TDP1): qHTS in cells in absence of CPT; DT40 Tdp1-/- hTDP1 cells, no CPT, ATP luminescence, 48 h; Potency, µM (doses to about 46.2 µM), actives largely listed as inhibitors; 420,000 tested, 15% active; AID 686978, 2013; further: nearly all actives have a fitted effect of over 55% in size
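Cells were dispensed at 400 per well, compounds added by pin tool, plates incubated ≥48 hr at 37 °C, then CellTiter-Glo added for 30 min at room temperature before luminescence reading. Line: DT40 Tdp1-/- complemented with hTDP1; camptothecin omitted.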
TDP1 inh = TDP1 (human) enzyme inhibition; recombinant TDP1, AlphaScreen DNA substrate cleavage; Potency, µM (series often up to 130 µM), actives largely listed as inhibitors; 350,000 tested, 0.28% active; further: nearly all actives have a fitted effect of over 40% in size
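Recombinant human Tdp1 (E. coli-expressed, 1 nM final) preincubated with compounds 15 min at room temperature, then 5'-biotin/3'-phosphotyrosine-FITC DNA substrate (15 nM final) added for 5 min. AlphaScreen beads (10 ug/ml final) added 10 min; cleavage lowers signal.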
TDP1 cell CPT = DT40-hTDP1 cell growth loss with CPT; chicken DT40 Tdp1-/-;hTDP1 cells + 20 nM CPT, ATP luminescence, 48 h; Potency, µM (titrated, usually from 46.2 µM), usual class: inhibitors; 420,000 tested, 12% active; AID 686979; further: nearly all actives have a fitted effect of over 55% in size
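Chicken DT40 Tdp1-/- cells complemented with human TDP1, 400 cells/well, exposed to compounds plus 20 nM camptothecin for at least 48 h at 37 C; viability read as ATP content by CellTiter-Glo luminescence.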
miR-21 reporter = miR-21 reporter, rising signal | HeLa miR-21 FLuc reporter, luciferase, 48 h | Potency, µM (highest dose often 38.3 µM) | 340,000 tested, under 10 active | AID 2288; active = well fitted rising curve with a large enough effect; inconclusive = small, poorly fitted or top-dose-only effect; inactive = no such curve, though single readings can be large or run the other way;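 further: miR-21 action dims this reporter so a rising signal means less miR-21 action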
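HeLa miR-21-FLuc reporter line, endogenous miR-21; 2000 cells/well in DMEM/10% FBS; compound titration up to ~40uM final, 48 h, 37 degree Celsius; luciferase detection reagent, 15 min lysis, CCD luminescence.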
uPA generation = inhibitors of cell surface uPA generation. cell surface uPA generation assay, qHTS. Potency, µM (titrated, usually from 38.3 µM), most hits filed as inhibitors. 330,000 tested, 0.31% active; active means well fitted inhibition curve with a large enough effect; inconclusive means small, poorly fitted or top-dose-only effect; inactive means no such curve, though single readings can be large or run the other way; tested in mouse RAW 264.7 cells; further: nearly all actives have a fitted effect of over 55% in size
Numbers stand for hits; - = inactive; ? = inconclusive; . = no result. This is a sample that favours compounds with a hit; in the whole collection about 16% have one here. Unless noted, the call rests on the fitted dose curve; in most records, active means well fitted curve in the direction sought with a large enough effect; inconclusive means small, poorly fitted or top-dose-only effect, or another doubt; inactive means no such curve, though single readings can be large; an effect the other way counts as inactive or inconclusive.

SMILES	TDP1 cell noCPT	TDP1 inh	TDP1 cell CPT	miR-21 reporter	uPA generation
Nc1c(C(=O)Nc2ccccc2F)sc2nc3c(cc12)CCCCCC3	3.66µM	.	2.59µM	-	.
CCc1nnc(NC(=O)c2cc(-c3ccccc3)nn2-c2ccccc2)s1	?	-	?	-	.
CN(Cc1ccccc1)C(=O)c1[nH]cnc1C(=O)NCC(=O)OC(C)(C)C	-	.	-	-	-
CC(C)(C)OC(=O)NCCCC[C@H](NC(=O)c1nc[nH]c1C(=O)NCc1ccccc1)C(=O)OC(C)(C)C	?	-	?	-	?
CC(C)(C)OC(=O)NCCCC[C@H](NC(=O)c1[nH]cnc1C(=O)N[C@@H](Cc1ccccc1)C(=O)OC(C)(C)C)C(=O)OC(C)(C)C	9.2µM	-	20.6µM	?	?
CN(Cc1ccccc1)C(=O)c1[nH]cnc1C(=O)N[C@@H](CCCCNC(=O)OC(C)(C)C)C(=O)OC(C)(C)C	?	-	16.4µM	-	-
C[C@H](NC(=O)c1nc[nH]c1C(=O)N[C@@H](CCCCNC(=O)OC(C)(C)C)C(=O)OC(C)(C)C)c1ccccc1	23.1µM	-	?	-	?
O=C(CC1(O)C(=O)Nc2cc(Cl)cc(Cl)c21)c1ccccc1O (stereo unspecified)	?	-	?	-	-
CC[C@]12c3[nH]c4ccccc4c3CCN1C(=O)C(CC(=O)NCCN1CCOCC1)C[C@@H]2C(=O)N1CCN(C(=O)C2CC2)CC1 (stereo partly specified)	-	-	-	.	-
O=S(=O)(c1cnccc1N1CCN(/N=C/c2ccccc2)CC1)N1CCCCC1	?	-	-	-	-
CCC(=O)NCCc1nc2cc(NC(=O)c3ccco3)ccc2n1C	-	.	-	-	-
Nc1nc2ncccc2cc1C(=O)NCCc1cccs1	13µM	.	23.1µM	.	.
O=C(NCCc1cccs1)c1ccc(Cl)c(Cl)c1	-	-	-	-	-
CC(C)(C)C1CCC(=NNc2ncc(C(F)(F)F)cc2Cl)CC1 (stereo unspecified)	-	-	-	-	.
COc1cc(CCC(=O)NC2(C)CCS(=O)(=O)C2)cc(OC)c1OC (stereo unspecified)	-	-	-	.	-
CCN(c1ccccc1)c1cc(C)nc2nc(C)nn12	-	-	-	-	-
Cc1cccc(N(C)c2cc(C)nc3nc(C)nn23)c1	?	-	16.4µM	-	?
CN1CCN(C(=O)C2(NC(=O)NCc3ccccc3)CCCCC2)CC1	-	-	-	-	-
O=C(C#Cc1ccccc1)Nc1cccc(F)c1	5.8µM	-	4.11µM	?	-
COc1ccc(NC(=O)CCCCC#Cc2ccccc2)cc1	14.6µM	-	?	.	-
COc1ccc(NC(=O)CCCCC(=O)Nc2ccc(OC)cc2)cc1	-	.	-	-	-
O=C(C#Cc1ccccc1)Nc1ccc(F)cc1	11.6µM	.	?	-	-
O=C(CC(=O)Nc1cccc(F)c1)Nc1cccc(F)c1	?	.	?	-	-
COc1ccc(NC(=O)C#Cc2ccccc2)cc1	10.3µM	-	20.6µM	-	-
CCN(CC)CCNc1oc(-c2ccccc2)nc1S(=O)(=O)c1ccccc1	?	-	?	.	-
SMILES	TDP1 cell noCPT	TDP1 inh	TDP1 cell CPT	miR-21 reporter	uPA generation
O=C1O[C@@H]([C@@H](O)CO)[C@@H](O)[C@H]1O	.	-	.	.	.
COc1ccc2c(c1)/C(=C\c1cccc(/C=C3/C(=O)Nc4ccc(OC)cc43)n1)C(=O)N2	1.84µM	.	1.64µM	.	-
Cc1ccc2c(c1)/C(=C/c1ccccc1)C(=O)N2	?	.	-	-	-
Cc1nn(-c2ccccn2)c2c1C(=O)CC(C)(C)C2Br (stereo unspecified)	?	-	16.4µM	-	-
COCCNC(=O)c1cc(-c2ccccn2)nc2ccc(S(=O)(=O)N3CCC(C)CC3)cc12	-	-	-	-	-
O=C1OCCN1C(=O)[C@H]1[C@H](c2ccc([N+](=O)[O-])cc2)C(c2ccc(F)cc2)=NN1c1ccc(Br)cc1	14.6µM	-	?	.	-
O=C1OCCN1C(=O)[C@H]1[C@H](c2ccc([N+](=O)[O-])cc2)C(c2ccc(F)cc2)=NN1c1ccccc1	-	-	?	.	-
O=c1c(-c2cccc([N+](=O)[O-])c2)[n+]([O-])c2ccccc2n1O	-	.	-	-	-
CC(C)(C)NCCC(O)c1cc(C(F)(F)F)nc2c(C(F)(F)F)cccc12 (stereo unspecified)	16.4µM	.	20.6µM	.	-
COc1ccc(SC2=C[C@@]3(O)CC[C@@H](O)[C@@](Sc4ccc(OC)cc4)(C2=O)[C@H]3O)cc1	16.4µM	.	23.1µM	.	.
COC(=O)[C@@]1(Sc2ccccc2)CC(=O)N[C@@H]1c1ccccc1	-	.	-	.	.
O=C1C(Sc2ccccc2)=C[C@@]2(O)CC[C@@H](O)[C@]1(Sc1ccccc1)[C@H]2O	5.8µM	.	5.17µM	.	.
COc1ccc(CCC(=O)Nc2ccc(C)c([N+](=O)[O-])c2)cc1	-	-	-	-	-
Cc1ccc(S(=O)(=O)Nc2cc(=O)[nH]c(SCC(=O)Nc3ccccc3Cl)n2)cc1	-	35.5µM	-	-	-
Cc1ccc(NC(=O)CSc2nc(NS(=O)(=O)c3ccccc3)cc(=O)[nH]2)cc1	-	28.2µM	-	-	-
O=C(CSc1nc(NS(=O)(=O)c2ccccc2)cc(=O)[nH]1)Nc1ccccc1Cl	-	-	-	-	-
CCc1ccc(NC(=O)CSc2nc(NS(=O)(=O)c3ccccc3)cc(=O)[nH]2)cc1	16.4µM	.	25.9µM	-	-
CCn1c(SCC(=O)Nc2ccc(F)cc2F)nc2c(c1=O)SCC2	-	-	-	-	-
CCCCn1nnnc1C1(C)CCC(=O)N1CCc1c[nH]c2ccccc12 (stereo unspecified)	-	.	-	.	.
CCN(CC(=O)Nc1ccc(OC)cc1)C(=O)C1CCN(C(=O)c2ccc(Cl)cc2)CC1	-	-	-	.	?
O=C(NCCCN1CCN(c2ccccc2F)CC1)C1CCN(S(=O)(=O)c2cccs2)CC1	?	-	12.6µM	-	.
O=C(NCCN1C(=O)S/C(=C\c2ccccc2)C1=O)C1CCN(S(=O)(=O)c2cccs2)CC1	18.4µM	-	13µM	-	-
COc1ccc(CCN2CCCn3c2nc2c3c(=O)[nH]c(=O)n2C)cc1OC	7.31µM	.	25.9µM	-	-
COCCn1c(=O)c2c(nc3n2CCCN3CCc2ccc(OC)c(OC)c2)n(C)c1=O	?	.	-	-	-
CCCCCCn1c(CNC(=O)c2ccccc2)nc2ccccc21	?	-	?	-	.
Cc1ccc(C(=O)N2N=C(c3ccccc3O)CC2c2ccccc2)cc1 (stereo unspecified)	20.6µM	.	?	-	-
CC(=O)Nc1nonc1-c1nnc(SCc2ccccc2Cl)n1C	?	-	?	-	.
O=C(NCCCCl)C1CC(=O)N(CCc2ccc(F)cc2)C1 (stereo unspecified)	-	.	-	-	-
